Results taken from patent publication US20060141496A1, “Method of screening substance interacting with ABC protein” (priority 2003, published 2006).

Amino acid sequences for entries named in this document (tags omitted).
UniProt P08183, whole entry: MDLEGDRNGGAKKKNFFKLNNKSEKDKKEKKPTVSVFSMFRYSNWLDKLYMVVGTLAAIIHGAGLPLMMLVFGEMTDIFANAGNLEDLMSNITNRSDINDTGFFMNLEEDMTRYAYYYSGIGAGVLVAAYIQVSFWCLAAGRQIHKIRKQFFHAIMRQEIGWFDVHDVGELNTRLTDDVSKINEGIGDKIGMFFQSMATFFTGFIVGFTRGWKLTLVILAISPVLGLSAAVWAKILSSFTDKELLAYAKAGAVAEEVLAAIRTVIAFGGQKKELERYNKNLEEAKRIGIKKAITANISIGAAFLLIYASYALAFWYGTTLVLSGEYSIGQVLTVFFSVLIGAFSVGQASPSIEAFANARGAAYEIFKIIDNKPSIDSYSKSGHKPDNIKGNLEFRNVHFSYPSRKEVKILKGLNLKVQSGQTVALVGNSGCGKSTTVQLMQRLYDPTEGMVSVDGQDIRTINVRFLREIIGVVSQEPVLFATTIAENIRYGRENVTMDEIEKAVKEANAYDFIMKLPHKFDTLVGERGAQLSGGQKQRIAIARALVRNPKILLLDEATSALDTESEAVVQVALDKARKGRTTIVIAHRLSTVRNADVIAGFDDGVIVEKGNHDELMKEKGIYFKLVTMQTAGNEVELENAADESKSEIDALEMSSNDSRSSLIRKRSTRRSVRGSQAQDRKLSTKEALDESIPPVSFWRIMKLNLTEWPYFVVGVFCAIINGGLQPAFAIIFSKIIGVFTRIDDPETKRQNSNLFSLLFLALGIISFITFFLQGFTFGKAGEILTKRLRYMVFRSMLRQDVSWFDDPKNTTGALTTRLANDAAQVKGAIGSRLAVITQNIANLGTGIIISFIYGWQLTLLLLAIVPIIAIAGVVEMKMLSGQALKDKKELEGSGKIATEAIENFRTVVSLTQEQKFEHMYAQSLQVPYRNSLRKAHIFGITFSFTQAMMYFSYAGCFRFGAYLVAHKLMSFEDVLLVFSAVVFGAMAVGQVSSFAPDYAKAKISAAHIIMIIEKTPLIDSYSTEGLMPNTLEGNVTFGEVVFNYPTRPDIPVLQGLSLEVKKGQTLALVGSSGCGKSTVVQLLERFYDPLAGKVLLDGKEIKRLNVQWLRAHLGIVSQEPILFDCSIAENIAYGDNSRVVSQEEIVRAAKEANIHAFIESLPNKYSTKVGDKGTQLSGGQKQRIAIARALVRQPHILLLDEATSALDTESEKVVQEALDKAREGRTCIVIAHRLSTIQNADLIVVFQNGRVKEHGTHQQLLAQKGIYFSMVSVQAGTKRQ

Molecular target: human P-glycoprotein (Pgp or MDR 1) expressing membrane (Homo sapiens, UniProt P08183)
Conditions: substrate 0.05 mM; reaction time 5 minutes; 37° C.; background of control membrane subtracted; FIG. 4

C[C@H]1O[C@@H](O[C@H]2[C@@H](O)C[C@H](O[C@H]3[C@@H](O)C[C@H](O[C@H]4CC[C@@]5(C)[C@H](CC[C@@H]6[C@@H]5C[C@@H](O)[C@]5(C)[C@@H](C7=CC(=O)OC7)CC[C@]65O)C4)O[C@@H]3C)O[C@@H]2C)C[C@H](O)[C@@H]1O [Digoxin]
[3H] ADP binding activity compared to P-glycoprotein-expressing membrane without substrate: significant increase
